# Rango dissoc inh: inhibitors of RanGTP-induced Rango-importin beta complex dissociation; Biochemical FRET Rango-importin beta, RanGTP-induced dissociation; 340,000 tested, 0.071% active; Potency, µM (titrated, usually from 46.1 µM), inactives show top-dose activity change, negative = inhibition; AID 540253; O95149+P62826; further: % of control where 0% means no effect; nearly all actives have a fitted effect of over 45% in size
#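 Two FRET readings bracket the reaction: one 5 min after compound meets Rango–importin beta, another 45 min after RanGTP-RCC1 (0.6 uM Ran, 0.2 uM RCC1, 2 mM GTP) is added. Only the second defines inhibition.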
# gsp antag: antagonizes gsp, the McCune-Albright syndrome mutation. 340,000 tested, 0.4% active. gsp-mutant cells, cAMP HTRF, 30 min. Potency, µM (doses to about 76.9 µM), for inactives: top-dose activity change, negative = inhibition, actives largely listed as inhibitors; calls by dose curve; cell line not stated here;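 further: intracellular cAMP measured with PDE inhibitor Ro 20-1724 present during compound exposure; on the % scale 0 is the no-effect control and ±100 the full control effect; nearly all actives have a fitted effect of over 65% in size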
#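 HTRF cAMP measurement after 30 min RT detection following 30 min, 37C compound treatment alongside […] (added as 300 uM solution) in G418-selected cells seeded at 2000/well and grown 16–24 h.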
# Rango-impB inh: Rango-importin beta binding inhibition; Q14974; Rango CFP/YFP FRET sensor + importin beta, 45 min; Potency, µM (doses to about 92.2 µM), for inactives: at the highest dose inhibition of complex formation; 340,000 tested, 0.031% active;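 further: 0% = DMSO wells and 100% = buffer wells lacking importin beta; nearly all actives have a fitted effect of over 15% in size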
#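 FRET biosensor Rango (snurportin 1 IBB between N-terminal EYFP and C-terminal Cerulean), 50 nM in PBS/1 mM DTT/0.02% Tween-20/0.1% BSA, preincubated 5 min RT with compound; 0.125 microM importin beta added, 45 min RT, CFP/YFP FRET ratio read.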
# gsp ag: activates gsp, the McCune-Albright syndrome mutation; Potency, µM (top dose mostly 76.9 µM), without a hit: at the highest dose activation (cAMP increase), usual class: activators; AID 624287; gsp mutant cells, cAMP HTRF, 30 min; 340,000 tested, 0.13% active; active means well fitted activation curve with a large enough effect; inconclusive means small, poorly fitted or top-dose-only effect, or another doubt; inactive means no such curve, though single readings can be large or run the other way; cell line not stated here;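 further: phosphodiesterase inhibitor Ro 20-1724 added with compounds to block cAMP breakdown; nearly all actives have a fitted effect of over 60% in size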
#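 Cells in DMEM/10% FBS with G418 were pretreated with compounds in DMSO plus […] (300 uM stock) for 30 min at 37C. cAMP was measured by HTRF (cAMP-d2 plus anti-cAMP antibody-K) after 30 min at room temperature.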
# Active calls of the source: *; ? = inconclusive; / = no result given; [ ] = another dose, or the depositor's remark. Hits are enriched below; roughly 0.66% of the tested compounds scored in any of these assays. Unless noted, the call rests on the fitted dose curve. Potency means the concentration at half of the fitted maximal effect.
1: Cc1ccc2c(C)c3ccc4ccccc4c3c[n+]2c1
2: N#Cc1c(Cl)nc(Cl)c2c1CCN(Cc1ccccc1)C2
3: c1ccc(CN2CCN(Cc3ccc4ccccc4c3)CC2)cc1
4: CN1CCc2nc(SCc3cccc(Br)c3)c(C#N)cc2C1
5: C=C(C)C(Cc1c(OC)ccc(C(=O)/C=C/c2ccc(O)cc2)c1O)OO (stereo not given)
6: CCOc1ccc(NC(=S)N2CCC(NC(=O)c3ccccc3C)CC2)cc1
7: CC(C)CC1C(=O)N(Cc2cn(CC3CCCCC3)nn2)CCS(=O)(=O)N1Cc1ccc(-c2ccc(F)nc2)cc1 (stereo not given)
8: C=CCN1C(=O)/C(=C\c2ccc(N3CCOCC3)o2)C(=O)NC1=S
9: CN1C(=O)C(Cc2nc3ccccc3c(=O)n2-c2ccccc2)c2ccccc21 (stereo not given)
10: O=C1Nc2ccccc2C1Cc1nc2ccccc2c(=O)n1-c1ccccc1 (stereo not given)

screen / no.,1,2,3,4,5,6,7,8,9,10
Rango dissoc inh,2%,5.2µM*[inhibitor],0%,16µM*,2%,15%,/,7%,-9%,-18%
gsp antag,50µM*,-8%,10%,13%,25µM*,9%,/,-6%,35µM*,-5%
Rango-impB inh,?,?,-1%,?,1%,-1%,/,65µM*,-1%,1%
gsp ag,?,-50%,-3%[15.4 µM],-4%[15.4 µM],/,-72%,-41%,-10%,-4%,22%

# The last 2 entries of the part above come first, to join the parts:
9: CN1C(=O)C(Cc2nc3ccccc3c(=O)n2-c2ccccc2)c2ccccc21 (stereo not given)
10: O=C1Nc2ccccc2C1Cc1nc2ccccc2c(=O)n1-c1ccccc1 (stereo not given)
11: CC(=O)Nc1ccccc1C(=O)OCc1ccc(C(=O)c2ccccc2)cc1
12: CC(=O)Nc1ccccc1C(=O)OCC(=O)c1ccc2ccccc2c1
13: Nc1ccccc1C(=O)OCC(=O)c1ccc2c(c1)OCCO2
14: CC(=O)Nc1ccccc1C(=O)OCc1cccc(F)c1
15: C[C@H]1CNC(=O)c2c(C(=O)Nc3ccc(CNC(=O)OC(C)(C)C)cc3)ncn21
16: COC(=O)[C@H]1[C@H]2C[C@@H]3c4[nH]c5cc(OC)ccc5c4CCN3C[C@H]2C[C@@H](OC(=O)/C=C/c2cc(OC)c(OC)c(OC)c2)[C@@H]1OC
17: C[C@@H]1CN([C@H](C)CO)C(=O)CCCn2nncc2CO[C@@H]1CN(C)C(=O)Nc1ccc(N2CCCCC2)cc1
18: O=C1C(=O)c2ccccc2-c2ccccc21
19: CC1(O)CCC2C3CCC4=CC(=O)CCC4=C3C=CC21C (stereo not given)
20: COCOC1CCC2C3CCC4=CC(=O)CCC4=C3C=CC12C (stereo not given)

screen / no.,9,10,11,12,13,14,15,16,17,18,19,20
Rango dissoc inh,-9%,-18%,5%,-12%,-12%,-9%,/,5.8µM*,/,-14%,-14%,21µM*
gsp antag,35µM*,-5%,1.8µM*,25µM*,?,11%,/,-20%,/,18µM*,-30%,-8%
Rango-impB inh,-1%,1%,-2%,-2%,-1%,-3%,/,?,/,6%,-2%,?
gsp ag,-4%,22%,-7%,-6%,0%,9%[15.4 µM],2%,/,-6%,/,-2%,-23%

# (continued)
no.	Compound	Rango dissoc inh	gsp antag	Rango-impB inh	gsp ag
21	Cc1cccc(N2C(=O)/C(=C/c3ccc(CN(CCC#N)S(C)(=O)=O)o3)C(=O)NC2=S)c1	23µM*	-23%	?	7%
22	O=C(Nc1ncccc1O)c1ccc(S(=O)(=O)NCc2ccco2)cc1	/	/	/	5%
23	CN(C)CCC=C1c2ccccc2CCc2ccccc21	-4%	20µM*	5%	/
24	CN(C)CC/C=C1\c2ccccc2Sc2ccc(Cl)cc21	8%	0%	4%	/
25	C#C[C@]1(O)CC[C@H]2[C@@H]3CCC4=Cc5nc6nc7ccccc7n6cc5C[C@]4(C)[C@H]3CC[C@@]21C	?	32µM*	?	/
26	Cc1ccc(S(=O)(=O)N2[C@H](c3cccc(Cl)c3)CC(=O)[C@@H]3CN(S(=O)(=O)c4ccccc4C)[C@H](c4ccc(Cl)cc4)C[C@@H]32)cc1	/	/	/	-61%
27	Cc1ccc(S(=O)(=O)N(C)C[C@H]2Oc3ncc(Br)cc3C(=O)N([C@H](C)CO)C[C@@H]2C)cc1	/	/	/	10%
28	O=C(CNC(=O)c1cccc(Cl)c1)Nc1ccc(Br)cc1C(=O)c1ccccc1	-2%	40µM*	0%	10%
29	CC(=O)C1=C(O)C2(C)c3c(O)c(C)c(O)c(C(C)=O)c3OC2CC1=O (stereo not given)	/	/	/	-50%
30	C=CCn1nc(C(=O)N2CCOCC2)cc1-c1sc(NC(=O)c2ccccc2)nc1C	/	/	/	22µM*
31	O=C(c1cc(-c2ccc(Cl)cc2)n(-c2ccc(Cl)cc2Cl)n1)N1CCOCC1	1%	4%	5%	-10%
32	O=C(CSc1nnc(NC(=O)C2CC2)s1)NCc1ccccc1Cl	20%	-3%	-4%	-46%
33	C[C@H](CO)N1C[C@H](C)[C@@H](CN(C)Cc2ccc(-c3ccccc3)cc2)Oc2c(NC(=O)c3ccncc3)cccc2C1=O	15%	32µM*	1%	/
34	CN1CCN(c2ncnc3ccc(Br)cc23)CC1	-16%	21%	?	?
35	CN1CCC(N(C)c2ncnc3ccc(Br)cc23)CC1	20%	0%	1%	32µM*
36	COc1ccccc1N1CCN(C(=O)CCC(=O)Nc2nnc(CC(C)C)s2)CC1	0%	-6%	1%	21%
37	Cc1cc2c(cc(C(=O)N3CCC(C(=O)NC4CCCC4)CC3)n2Cc2c(F)cccc2Cl)o1	1%	35µM*	-2%	-46%
38	O=C(C(=O)N1CCOCC1)c1cn(Cc2c(F)cccc2Cl)c2ccccc12	-11%	9%	-2%	-7%[15.4 µM]

# 3 structures out of the list, arranged by molecular weight, falling.
no.	Compound	Rango dissoc inh	gsp antag	Rango-impB inh	gsp ag
25	C#C[C@]1(O)CC[C@H]2[C@@H]3CCC4=Cc5nc6nc7ccccc7n6cc5C[C@]4(C)[C@H]3CC[C@@]21C	?	32µM*	?	/
32	O=C(CSc1nnc(NC(=O)C2CC2)s1)NCc1ccccc1Cl	20%	-3%	-4%	-46%
34	CN1CCN(c2ncnc3ccc(Br)cc23)CC1	-16%	21%	?	?
